Measured values reported in ChEMBL document CHEMBL4196069 (Eur J Med Chem, 2018).

Columns and labels:
Bel-7402 = experiment: Antiproliferative activity against human Bel7402 cells after 72 hrs by MTT assay; assay type: functional, cell-based
Summary of the method: (§1)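 Cells pre-incubated 24 h at 37 °C in humidified 5% CO2, then exposed to compounds for 72 h. MTT (5 mg/mL) was added for 4 h, formazan was dissolved in DMSO, and OD was read at 570 nm. Vehicle control was 0.1% DMSO. IC50 was calculated from inhibition ratios as the mean ± SD of three independent experiments.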

[1] = Selectivity index, ratio of IC50 for human LO2 cells to IC50 for human Bel7402 cells
PC-3 = experiment: Antiproliferative activity against human PC3 cells after 72 hrs by MTT assay; assay type: functional, cell-based; summary of the method: as §1
L02 = experiment: Antiproliferative activity against human LO2 cells after 72 hrs by MTT assay; assay type: cell-based; summary of the method: as §1
Bel7402/5-FU = experiment: Antiproliferative activity against human Bel7402/5-FU cells after 72 hrs by MTT assay

SMILES: O=C(O)c1ccc(N(CCCl)CCCl)cc1
- IC50 (Bel-7402): 46.5 µM
- Ratio IC50 [1]: 1.5
- IC50 (PC-3): 57.3 µM
- IC50 (L02): 68.6 µM
- IC50 (Bel7402/5-FU): > 80 µM
